This note sets out measurements from PMC6754446.

Test [1] concerns the target OTULINcat E85R, D87R (human) (UniProt Q96BN8). The test can be described thus: ITC; PDZ variant (150-450 µM) in the syringe, OTULINcat variant (20-30 µM) in the cell; 25 °C; 20 mM HEPES pH 7.4, 200 mM NaCl, 2 mM TCEP; single-site binding model.
Test [2] deals with OTULINcat D87R (human) (UniProt Q96BN8). The description is as above.
The target in test [3] is OTULINcat (aa 80-352) (human) (UniProt Q96BN8). Described as above.
The target in test [4] is OTULINcat D90R (human) (UniProt Q96BN8). The test is described as above.
Test [5] has as its target OTULINcat E209R (human) (UniProt Q96BN8). Described as above.
In test [6] the target is OTULINcat E85R (human) (UniProt Q96BN8). The description is as above.
Test [7] addresses OTULINcat (aa 80-352) (human) (UniProt Q96BN8). The test can be described thus: SEC; purified recombinant proteins, Superdex 75 10/300, 20 mM Tris pH 7.5, 150 mM NaCl, 2 mM DTT; 500 µl of 65 µM complexes at equimolar ratio or in isolation.

On to “SNX27 PDZ domain (aa 40-135) (from UniProt Q96L92 40-135) (domain or fragment)”, for which the stoichiometry N in test [1] was found to be 1.53; in test [2], 0.99; in test [3], 0.91; in test [4] it was 0.75; in test [5], 0.74; in test [6] it was 1.02.

As for “SNX27PDZ (aa 40–135) (from UniProt Q96L92 40-135) (domain or fragment)”, the stoichiometry N in test [7] came out at 1.

For the substance “SNX27PDZ G64E (from UniProt Q96L92 40-135) (domain or fragment)”, in test [3], the stoichiometry N amounted to 0.75.

Take “SNX27PDZ G64E, R100E (from UniProt Q96L92 40-135) (domain or fragment)”: the stoichiometry N in test [3] was 0.84.

Take “SNX27PDZ G65A (from UniProt Q96L92 40-135) (domain or fragment)”: in test [3], the stoichiometry N came out at 0.76.

“SNX27PDZ R100E (from UniProt Q96L92 40-135) (domain or fragment)” returned a stoichiometry N in test [3] of 0.89.
